Columns and labels:
[1] = system: human hepatocytes; experiment: Metabolic stability in Hμrel human hepatocyte co-culture; assay type: in vitro ADME
Description: The metabolic stability of 5-MIAA and 5-methoxytryptophol was investigated in a Hμrel co-culture assay with human hepatocytes (Hμrel HumanPool™, primary hepatic co-culture model from Visikol Inc.).
The incubations were performed using 1 and 10 μM initial concentrations and sampling at 0, 1, 2, 4, 8, 24, 48, and 72 hours (h) time points. The samples were analysed using UPLC/QE-orbitrap-MS.
The remaining LC/MS peak areas detected for test compounds after each incubation time point with Hμrel co-culture assay, relative to corresponding 0 min incubation samples, are shown in the tables below.

[2] = system: human hepatocytes; experiment: Metabolite identification in human hepatocytes; assay type: in vitro ADME; conditions: 5-MeO-DMT 10 μM, up to 120 minutes
Description: All samples were stored at −80° C. (nominal) prior to analysis.
Appropriate blank and control samples were also analysed. […] (nominal).

## 5-Methoxyindole acetic acid [5-MIAA]
[1]; 1 μM, hepatocytes, 0 h
  relative LC/MS peak area: 100%
[1]; 1 μM, hepatocytes, 1 h
  relative LC/MS peak area: 98%
[1]; 1 μM, hepatocytes, 2 h
  relative LC/MS peak area: 100%
[1]; 1 μM, hepatocytes, 4 h
  relative LC/MS peak area: 99%
[1]; 1 μM, hepatocytes, 8 h
  relative LC/MS peak area: 95%
[1]; 1 μM, hepatocytes, 24 h
  relative LC/MS peak area: 99%
[1]; 1 μM, hepatocytes, 48 h
  relative LC/MS peak area: 88%
[1]; 1 μM, hepatocytes, 72 h
  relative LC/MS peak area: 82%
[1]; 1 μM, human hepatocytes
  half-life: 15 400 min
[1]; 1 μM, stromal cells, 0 h
  relative LC/MS peak area: 100%
[1]; 1 μM, stromal cells, 4 h
  relative LC/MS peak area: 103%
[1]; 1 μM, stromal cells, 8 h
  relative LC/MS peak area: 107%
[1]; 1 μM, stromal cells, 24 h
  relative LC/MS peak area: 108%
[1]; 1 μM, stromal cells, 48 h
  relative LC/MS peak area: 111%
[1]; 1 μM, stromal cells, 72 h
  relative LC/MS peak area: 135%
[1]; 10 μM, hepatocytes, 0 h
  relative LC/MS peak area: 100%
[1]; 10 μM, hepatocytes, 1 h
  relative LC/MS peak area: 97%
[1]; 10 μM, hepatocytes, 2 h
  relative LC/MS peak area: 100%
[1]; 10 μM, hepatocytes, 4 h
  relative LC/MS peak area: 103%
[1]; 10 μM, hepatocytes, 8 h
  relative LC/MS peak area: 96%
[1]; 10 μM, hepatocytes, 24 h
  relative LC/MS peak area: 96%
[1]; 10 μM, hepatocytes, 48 h
  relative LC/MS peak area: 86%
[1]; 10 μM, hepatocytes, 72 h
  relative LC/MS peak area: 75%
[1]; 10 μM, stromal cells, 0 h
  relative LC/MS peak area: 100%
[1]; 10 μM, stromal cells, 4 h
  relative LC/MS peak area: 101%
[1]; 10 μM, stromal cells, 8 h
  relative LC/MS peak area: 106%
[1]; 10 μM, stromal cells, 24 h
  relative LC/MS peak area: 97%
[1]; 10 μM, stromal cells, 48 h
  relative LC/MS peak area: 103%
[1]; 10 μM, stromal cells, 72 h
  relative LC/MS peak area: 115%
[2]
  relative proportion of compounds identified: 61%
